# Yeast mating assay 1: variants of the scFv Ab-14

Binding partner: SARS-CoV-2 spike HR2 peptide, sequence PDVDLGDISGINAS.

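Phage display of a naive human antibody library on the peptide gave the parent. AAYL50 was designed without a model: most single CDR substitutions and a random sample of double and triple ones. AlphaSeq pools MATa yeast showing the antibodies with MATalpha yeast showing the peptide. After mating in shaken culture at 30 °C for 16 h, diploids were selected and their barcode pairs sequenced. Read counts were normalised to the haploid input and turned into Kd by a linear fit to BCL2-family pairs of known affinity, for each replicate. There are three technical replicates.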

Parent: Ab-14, a human scFv built as VH, three GGGGS repeats, VL. Only the CDRs of the light chain vary.
VH: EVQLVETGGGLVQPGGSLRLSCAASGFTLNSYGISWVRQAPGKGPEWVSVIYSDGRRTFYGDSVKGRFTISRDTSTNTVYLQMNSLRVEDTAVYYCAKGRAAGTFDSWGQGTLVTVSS
VL: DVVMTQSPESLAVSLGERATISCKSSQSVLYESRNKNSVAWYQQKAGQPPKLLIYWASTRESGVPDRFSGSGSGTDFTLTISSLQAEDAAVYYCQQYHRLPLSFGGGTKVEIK

Positions count from residue 1 of the parent VL; L30V puts V in place of L.
Values are log10 of the apparent Kd in nM; lower means stronger binding.
An entry "nd" has no value in the source: the pair was not observed among the diploids in that replicate. This suggests poor binding but is not conclusive.
In this assay the parent's reference entry averaged 0.65; its copy inside this library read 1.68.
Three control strains display no target. For library AAYL50, 18% of the pairings with them gave a signal, with a median of 4.19 and one signal in twenty below 2.99, so weak values seen in few replicates may be background. The control count says in how many pairings with the empty strains this scFv gave a signal.

Variant L30V E61Y showed nd, 3.40, 4.53 (controls 2 of 9).
Variant K24M V29N Y97L showed 3.14, 3.29, 3.02 (controls 0 of 9).
Variant Q27Y Y31T W56H showed 0.22, 0.53, 0.30 (controls 1 of 9).
Variant E32M S38G S62M showed nd, nd, nd (controls 1 of 9).
Variant N35K A40Y S62G showed 4.36, 5.38, nd (controls 8 of 9).
Variant S58V L102F S103F showed 1.58, 1.68, 1.80 (controls 2 of 9).
Variant E32H S58K E61G showed nd, nd, nd (controls 0 of 9).
Variant R34C A40H H98F showed 4.56, nd, nd (controls 4 of 9).
Variant H98G L100K showed nd, nd, nd (controls 5 of 9).
Variant A40S Q96G S103V showed nd, 3.55, nd (controls 1 of 9).
Variant Y31F A40T P101T showed 4.61, nd, 5.51 (controls 5 of 9).
Variant S38W Q95I P101I showed nd, nd, nd (controls 0 of 9).
Variant Y31G A40N W56G showed 4.30, nd, 2.74 (controls 3 of 9).
Variant K36S Q96A L100R showed nd, nd, nd (controls 0 of 9).
Variant W56M S58Y E61Q showed 2.50, 2.54, 2.91 (controls 3 of 9).
Variant V39Q E61N Y97L showed nd, nd, nd (controls 0 of 9).
Variant L30T K36A L100W showed 1.17, 1.41, 1.29 (controls 4 of 9).
Variant L30M N35D Q96F showed 1.46, 1.32, 1.32 (controls 0 of 9).
Variant Y31Q N35P S58A showed 2.08, 2.04, 2.25 (controls 5 of 9).
Variant K24E S25M R99K showed nd, 3.62, nd (controls 1 of 9).
Variant N35Q S38G S58C showed nd, nd, nd (controls 1 of 9).
Variant K36E E61F R99H showed 0.51, 0.59, 0.53 (controls 1 of 9).
Variant A57W S58D P101E showed nd, nd, nd (controls 0 of 9).
Variant S28V S33R H98D showed nd, nd, nd (controls 0 of 9).
Variant A57K Y97M S103V showed nd, nd, nd (controls 0 of 9).
Variant S25D R99P S103I showed 1.16, 1.16, 1.17 (controls 2 of 9).
Variant Q27Y E61W Y97G showed 2.62, 2.56, 2.83 (controls 3 of 9).
Variant Q27N E61N P101V showed nd, nd, nd (controls 1 of 9).
Variant K36I S58Q H98P showed 0.85, 1.73, 1.30 (controls 2 of 9).
Variant Q27M T59I Q96K showed nd, nd, nd (controls 1 of 9).
Variant V29K E32D K36M showed 0.41, 0.95, 0.70 (controls 0 of 9).
Variant S33I R34V L102N showed nd, nd, nd (controls 0 of 9).
Variant K24P S26Y Q95Y showed nd, 2.97, nd (controls 1 of 9).
Variant Y31T Q95K Q96R showed 1.51, 1.47, 1.55 (controls 2 of 9).
Variant S25D R60Q L100M showed 3.44, nd, nd (controls 1 of 9).
Variant V39L T59M E61D showed nd, nd, nd (controls 0 of 9).
Variant Y31V S33M A57Q showed nd, 3.75, 3.00 (controls 2 of 9).
Variant S26W V29R R60P showed nd, nd, nd (controls 1 of 9).
Variant E32F K36A N37I showed 4.27, 3.50, 4.71 (controls 1 of 9).
Variant L30R E32P N35C showed 4.19, nd, nd (controls 4 of 9).

Picked from the list: the 5 lowest averages where every replicate gave a value.

changes,"replicates, log10 nM",empty controls
Q27Y Y31T W56H,"0.22, 0.53, 0.30",1/9
K36E E61F R99H,"0.51, 0.59, 0.53",1/9
V29K E32D K36M,"0.41, 0.95, 0.70",0/9
S25D R99P S103I,"1.16, 1.16, 1.17",2/9
L30T K36A L100W,"1.17, 1.41, 1.29",4/9

Data: MIT Lincoln Laboratory AlphaSeq set, Engelhart et al. 2022, doi:10.1038/s41597-022-01779-4, as distributed in FLAb.